Read-outs that look alike come from different tables or passages of the source.

Sequences of proteins named here, by UniProt entry; tags and fusion partners are left off. Residues count along the entry.
UniProt P04626, 23-1255 limits assumed: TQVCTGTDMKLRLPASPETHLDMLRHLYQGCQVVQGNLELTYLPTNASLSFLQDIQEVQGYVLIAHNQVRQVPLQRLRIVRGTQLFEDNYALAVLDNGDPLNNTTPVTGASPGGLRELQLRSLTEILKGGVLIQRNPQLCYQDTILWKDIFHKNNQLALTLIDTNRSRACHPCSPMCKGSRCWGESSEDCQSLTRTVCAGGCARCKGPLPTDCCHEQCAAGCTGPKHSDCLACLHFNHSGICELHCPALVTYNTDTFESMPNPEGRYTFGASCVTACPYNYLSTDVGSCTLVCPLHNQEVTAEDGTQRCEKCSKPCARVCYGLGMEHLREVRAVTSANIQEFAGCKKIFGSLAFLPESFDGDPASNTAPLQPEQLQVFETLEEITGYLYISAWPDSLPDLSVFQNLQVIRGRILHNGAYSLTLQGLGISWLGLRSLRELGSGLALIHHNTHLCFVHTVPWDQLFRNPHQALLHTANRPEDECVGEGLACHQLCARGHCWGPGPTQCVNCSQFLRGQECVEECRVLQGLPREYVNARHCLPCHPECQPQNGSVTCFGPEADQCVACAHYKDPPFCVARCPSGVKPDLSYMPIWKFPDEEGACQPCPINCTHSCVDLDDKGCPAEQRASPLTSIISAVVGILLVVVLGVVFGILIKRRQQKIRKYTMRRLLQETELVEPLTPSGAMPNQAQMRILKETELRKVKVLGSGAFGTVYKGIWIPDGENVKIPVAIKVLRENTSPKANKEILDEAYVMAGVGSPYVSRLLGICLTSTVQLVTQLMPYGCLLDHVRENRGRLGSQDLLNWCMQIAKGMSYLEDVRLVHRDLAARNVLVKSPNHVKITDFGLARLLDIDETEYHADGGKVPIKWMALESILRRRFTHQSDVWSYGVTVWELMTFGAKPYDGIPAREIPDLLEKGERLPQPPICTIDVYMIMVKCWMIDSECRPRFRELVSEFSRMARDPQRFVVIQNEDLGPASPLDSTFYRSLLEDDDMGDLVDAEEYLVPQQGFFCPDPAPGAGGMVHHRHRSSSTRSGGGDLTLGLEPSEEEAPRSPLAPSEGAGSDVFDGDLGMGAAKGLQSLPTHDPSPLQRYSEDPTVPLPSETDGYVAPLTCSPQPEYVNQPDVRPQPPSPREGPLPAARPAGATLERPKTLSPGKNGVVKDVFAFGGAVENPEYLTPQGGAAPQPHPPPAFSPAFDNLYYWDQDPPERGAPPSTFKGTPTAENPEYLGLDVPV
UniProt P00533, 25-1210 limits assumed: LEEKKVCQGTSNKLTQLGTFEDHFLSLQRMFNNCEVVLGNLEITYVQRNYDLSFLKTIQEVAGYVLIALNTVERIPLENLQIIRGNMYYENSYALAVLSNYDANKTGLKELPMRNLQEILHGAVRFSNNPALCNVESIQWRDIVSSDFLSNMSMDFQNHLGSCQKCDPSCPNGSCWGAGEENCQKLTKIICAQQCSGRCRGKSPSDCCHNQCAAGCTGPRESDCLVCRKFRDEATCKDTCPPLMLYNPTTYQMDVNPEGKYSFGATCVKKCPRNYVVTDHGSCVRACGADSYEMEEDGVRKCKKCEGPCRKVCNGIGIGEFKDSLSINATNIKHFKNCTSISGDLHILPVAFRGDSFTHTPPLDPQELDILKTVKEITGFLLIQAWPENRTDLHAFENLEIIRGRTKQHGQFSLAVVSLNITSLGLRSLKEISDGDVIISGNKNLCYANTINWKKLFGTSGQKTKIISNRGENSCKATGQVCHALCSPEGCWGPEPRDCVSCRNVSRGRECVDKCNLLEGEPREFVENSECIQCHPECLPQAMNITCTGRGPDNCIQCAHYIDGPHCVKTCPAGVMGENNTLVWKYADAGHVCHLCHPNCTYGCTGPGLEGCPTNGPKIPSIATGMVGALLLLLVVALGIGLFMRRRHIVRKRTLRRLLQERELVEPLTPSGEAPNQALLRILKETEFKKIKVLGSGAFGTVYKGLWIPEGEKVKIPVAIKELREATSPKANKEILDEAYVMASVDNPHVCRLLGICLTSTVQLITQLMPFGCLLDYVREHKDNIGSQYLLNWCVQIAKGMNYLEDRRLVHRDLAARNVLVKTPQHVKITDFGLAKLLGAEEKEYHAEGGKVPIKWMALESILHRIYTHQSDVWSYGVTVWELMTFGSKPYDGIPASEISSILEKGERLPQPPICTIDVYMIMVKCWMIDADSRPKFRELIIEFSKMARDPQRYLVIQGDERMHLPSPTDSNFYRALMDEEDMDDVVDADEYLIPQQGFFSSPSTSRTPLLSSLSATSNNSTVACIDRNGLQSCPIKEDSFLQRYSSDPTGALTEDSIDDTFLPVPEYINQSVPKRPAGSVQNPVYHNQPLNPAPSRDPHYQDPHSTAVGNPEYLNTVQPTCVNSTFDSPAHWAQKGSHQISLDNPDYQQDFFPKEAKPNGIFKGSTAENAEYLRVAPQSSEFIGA
UniProt P09619, 33-1106 limits assumed: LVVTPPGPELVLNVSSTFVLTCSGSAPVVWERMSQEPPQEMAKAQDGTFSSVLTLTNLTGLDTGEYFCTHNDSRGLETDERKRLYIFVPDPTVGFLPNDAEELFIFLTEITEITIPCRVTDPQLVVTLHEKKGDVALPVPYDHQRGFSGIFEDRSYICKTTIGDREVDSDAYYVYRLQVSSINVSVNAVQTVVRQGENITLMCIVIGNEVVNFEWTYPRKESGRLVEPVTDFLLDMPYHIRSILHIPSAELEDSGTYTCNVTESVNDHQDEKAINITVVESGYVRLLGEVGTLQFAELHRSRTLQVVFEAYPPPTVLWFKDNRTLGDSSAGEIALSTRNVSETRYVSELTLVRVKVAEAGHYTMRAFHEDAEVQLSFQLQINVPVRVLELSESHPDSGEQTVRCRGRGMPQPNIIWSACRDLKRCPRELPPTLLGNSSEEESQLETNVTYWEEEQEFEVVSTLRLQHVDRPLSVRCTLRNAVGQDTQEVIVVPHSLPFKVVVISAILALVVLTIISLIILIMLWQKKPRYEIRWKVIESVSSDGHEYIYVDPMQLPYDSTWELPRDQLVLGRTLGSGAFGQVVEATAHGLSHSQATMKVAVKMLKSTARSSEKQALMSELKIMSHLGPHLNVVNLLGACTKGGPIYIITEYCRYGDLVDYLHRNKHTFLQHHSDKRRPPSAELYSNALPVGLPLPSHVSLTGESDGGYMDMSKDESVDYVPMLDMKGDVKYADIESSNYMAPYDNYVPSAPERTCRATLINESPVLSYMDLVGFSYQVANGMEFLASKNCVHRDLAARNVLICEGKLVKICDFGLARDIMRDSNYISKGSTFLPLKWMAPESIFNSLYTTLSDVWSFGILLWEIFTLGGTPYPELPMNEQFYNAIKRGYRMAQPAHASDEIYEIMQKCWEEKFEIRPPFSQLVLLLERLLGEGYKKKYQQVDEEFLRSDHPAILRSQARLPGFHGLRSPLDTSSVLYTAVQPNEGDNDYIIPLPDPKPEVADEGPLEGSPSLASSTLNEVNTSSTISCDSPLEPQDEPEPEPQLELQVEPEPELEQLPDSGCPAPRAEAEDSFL

The values below come from patent publication US6596878B2, “Methods and compositions for inhibiting cell proliferative disorders” (Yissum Research & Development Company of the Hebrew …, priority 1994, dated 2003).

One test concerns A431 cells. Put plainly: A431 growth assay (sulphorhodamine B). The settings on record: read-out: Estimated IC50 Growth Assays A431 cells, Table V, 4 days, SRB.
The target in a further test is HER2 (Homo sapiens, UniProt P04626). Nature of the test: HER2-BT474 whole cell kinase ELISA. The format is cell-based.
In another test the target is human EGF receptor (Homo sapiens, UniProt P00533). Nature of the test: EGF-receptor whole cell kinase assay (EGFR-3T3). The class given is cell-based.
A further test has as its system SKOV3 cells. Put plainly: SKOV3 soft agar colony growth assay. The note with it: read-out: Estimated IC50 Growth Assays SKOV3 cells, Table V, colony growth 2 weeks.
In a further test the test system is SKBR3 cells. Put plainly: SKBR3 growth assay (sulphorhodamine B).
A further test addresses PDGFR-β (Homo sapiens, UniProt P09619). Put plainly: PDGFR-β cellular kinase assay (U1242 cells). The note with it: read-out: Estimated IC50 Cellular Kinase Assays PDGFR-β, Table V.
Setting [1] is: read-out: Estimated IC50 Cellular Kinase Assays HER2 (BT474), Table V.

With `Cc1ccc2ncnc(Nc3cccc(Cl)c3)c2c1` [Compound P12a], the IC50 with A431 cells (tested form: free base (made from P12a with Na2CO3)) is 20 µM; at HER2 (read-out: Estimated IC50 Cellular Kinase Assays HER2 (BT474), Table V, tested form: free base (made from P12a with Na2CO3)) it was 6.82 µM; at HER2 (read-out: HER2, Table III, cellular kinase assay, class symbol, tested form: free base (made from P12a with Na2CO3)), below 50 µM; on human EGF receptor (read-out: EGFR, Table III, cellular kinase assay, class symbol, tested form: free base (made from P12a with Na2CO3)), below 50 µM.
Turning to `Clc1cccc(Nc2ncnc3ccccc23)c1`, the IC50 in the test with A431 cells was 20 µM; on HER2 (setting [1]), 34 µM; on HER2 (read-out: Estimated IC50 Cellular Kinase Assays HER2 (BT474), Table V, tested form: hydrochloride) it was 41 µM; on HER2 (read-out: HER2, Table III, cellular kinase assay, class symbol) it was below 50 µM; on HER2 (read-out: HER2, Table III, cellular kinase assay, class symbol, tested form: hydrochloride) it was below 50 µM; at human EGF receptor (read-out: EGFR, Table III, cellular kinase assay, class symbol), below 50 µM. For the same molecule, the IC50 on human EGF receptor (read-out: EGFR, Table III, cellular kinase assay, class symbol, tested form: hydrochloride) is below 50 µM.
On to `CC(=O)c1c(-c2ccccc2)[n+]([O-])c2ccccc2[n+]1[O-]`, for which the IC50 with SKOV3 cells was 85 µM; on HER2 (setting [1]), 20 µM; on HER2 (read-out: HER2, Table II, cellular kinase assay, class symbol) it was below 50 µM; on human EGF receptor (read-out: EGFR, Table II, cellular kinase assay, class symbol), above 50 µM; at human EGF receptor (read-out: Estimated IC50 Cellular Kinase Assays EGFR (EGF-3T3), Table V) it was above 100 µM; in the test on SKBR3 cells (read-out: Estimated IC50 Growth Assays SKBR3 cells, Table V, 4 days, SRB), 78 µM. Also, the IC50 on PDGFR-β is above 100 µM. Also, the “inhibition of HER2 activity” value on HER2 (significantly inhibit = IC50 less than 50 μM) is on record as “selectively inhibited”. In addition, in the test on SKBR3 cells (cells characterized by over-activity of HER2), the “inhibition of growth of cells characterized by over-activity of HER2” value is recorded as “inhibited growth”.
In the case of `Cc1ccc2ncnc(Nc3cccc(C(F)(F)F)c3)c2c1`, the IC50 was above 50 µM at HER2 (read-out: Estimated IC50 Cellular Kinase Assays HER2 (BT474), Table V, tested form: free base); above 50 µM at HER2 (read-out: HER2, Table III, cellular kinase assay, class symbol, tested form: free base); below 50 µM at human EGF receptor (read-out: EGFR, Table III, cellular kinase assay, class symbol, tested form: free base).
For `COc1cc2ncnc(Nc3cccc(Cl)c3)c2cc1OC`, the IC50 in the test on A431 cells (tested form: free base) is 10 µM.
